From patent US8129340B2, “Inhibitors of protein phosphatase 1, GADD34 and protein phosphatase 1/GADD34 complex, preparation and uses thereof” (Institut Gustave Roussy, priority 2006, dated 2012)

Test system: CRT and/or ERp57
Experiment: Immunofluorescence staining of unfixed human tumour cell lines for surface CRT and/or ERp57

Structure (SMILES)	exposure of CRT and/or ERp57 on the surface of human tumour cell lines
COc1cccc2c1C(=O)c1c(O)c3c(c(O)c1C2=O)C[C@@](O)(C(C)=O)C[C@@H]3O[C@H]1C[C@H](N)[C@H](O)[C@H](C)O1 [daunorubicin]	Very similar results
COc1cccc2c1C(=O)c1c(O)c3c(c(O)c1C2=O)C[C@@](O)(C(=O)CO)C[C@@H]3O[C@H]1C[C@H](N)[C@H](O)[C@H](C)O1 [doxorubicin]	Very similar results
CC(=O)[C@]1(O)Cc2c(O)c3c(c(O)c2[C@@H](O[C@H]2C[C@H](N)[C@H](O)[C@H](C)O2)C1)C(=O)c1ccccc1C3=O [idarubicin]	Very similar results
O=C1c2c(O)ccc(O)c2C(=O)c2c(NCCNCCO)ccc(NCCNCCO)c21 [mitoxantrone]	expose CRT and/or ERp57 on the surface of their cells
